# Laboratory results taken from patent publication US5780498A, “Endothelin receptor antagonists” (Ciba-Geigy Japan Limited, priority 1993, dated 1998).
# Chains of the proteins cited; added tags and fusions are not shown. Residues count along the entry.
# UniProt Q29010, 21-427: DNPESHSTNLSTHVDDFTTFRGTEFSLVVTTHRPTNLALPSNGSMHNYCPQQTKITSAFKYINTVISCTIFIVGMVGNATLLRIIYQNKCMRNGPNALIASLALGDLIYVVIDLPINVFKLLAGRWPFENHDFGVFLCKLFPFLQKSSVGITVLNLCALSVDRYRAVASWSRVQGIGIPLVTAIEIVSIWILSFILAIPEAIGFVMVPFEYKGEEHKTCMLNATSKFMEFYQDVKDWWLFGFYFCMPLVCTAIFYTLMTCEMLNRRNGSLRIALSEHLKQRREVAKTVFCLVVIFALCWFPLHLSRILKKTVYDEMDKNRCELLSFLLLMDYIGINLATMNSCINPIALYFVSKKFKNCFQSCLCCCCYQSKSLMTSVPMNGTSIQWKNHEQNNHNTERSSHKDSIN
# Biological target: T1, ETA receptor (Sus scrofa, UniProt Q29010)
# T1 construct: The plasma membrane of porcine lung; from tissue; host or cells: porcine lung plasma membrane
# Test: Endothelin (ET) receptor binding assay, ETA ([125I]ET-1 in the presence of 1 nM nonlabeled ET-3, porcine lung plasma membrane)
# Details: Scatchard analysis, read-out: apparant dissociation constant (Kd), ETA receptor
# Method: Nonspecific binding is defined as membrane-associated radioactivity in the presence of saturating concentrations of ETs (100 nM). Nonspecific binding is subtracted from the total binding and the difference is defined as specific binding.
substance,measurement,value
"[^125 I]ET-1: radiolabelled endothelin-1, purchased from Amersham International [reference compound]",Kd,0.044 nM
